Inhibition data for 51 molecules are collected here from PubChem BioAssay AID504441 (Broad Institute, 2011).

The list shows a part of the results, in another mix than the full data. Activity calls are given as the source filed them. No stated cut-off is given here; in the data, active means inhibition above about 50%; inactive means the rest.

What is called inhibition is the drop in the measured response relative to a control, in per cent.

The target in the experiment is Dual specificity tyrosine-phosphorylation-regulated kinase 1A (Rattus norvegicus) (UniProt Q63470). As to the kind of experiment: rat Dyrk1A kinase inhibitors, primary screen, biochemical, single point, plate reader (AID 504441).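 Further: plate controls were vehicle with enzyme for no effect and no enzyme for full effect.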 Conditions: ADP-Glo luminescence, NFATc1 peptide, at 12.5 µM, stronger effect = higher value. In general terms: ADP-Glo turns the ADP formed in a reaction into a luminescent signal.
Regarding `Cc1nn(-c2ccccc2)c2c1P(=O)(N1CCOCC1)N(C)C(c1ccccc1)=N2` (stereo unspecified), the inhibition was inactive: -3.12%.

With `Cc1ccc(C(=O)OC2CN3CCC2CC3)cc1` (stereo unspecified), the inhibition was inactive: -1.37%.

`CC1CCC(C(C)C)C(OP(=O)(Nc2ccccn2)c2ccccc2)C1` (stereo unspecified): the inhibition is inactive: -11.8%.

Regarding `Nc1cccc([As](=O)(O)c2ccccc2)c1`, the inhibition is inactive: 3.59%.

Turning to `NS(=O)(=O)c1cccc(NC(=O)COC(=O)C(O)(c2ccccc2)c2ccccc2)c1`, the inhibition was inactive: 3.38%.

Turning to `O=P1(Nc2ccc(Br)cn2)COc2ccccc2OC1`, the inhibition is inactive: -6.61%.

Consider `O=[As](O)(c1cccs1)c1cccs1`, for which the inhibition was inactive: 0.443%.

Turning to `Cc1ccc(OCC(=O)OC2CN3CCC2CC3)cc1` (stereo unspecified), the inhibition is inactive: -5.38%.

For `O=P1(Nc2ncccn2)COc2ccccc2OC1`, the inhibition was inactive: -0.16%.

Regarding `Clc1n[nH]nc1-c1nn[nH][15n]1`, the inhibition was inactive: -0.666%.

Regarding `CC(C)(C)C(=O)NC(Sc1ncccn1)C(Cl)(Cl)Cl` (stereo unspecified), the inhibition is inactive: -5.62%.

In the case of `CCC1=CC2Cc3nc4ccc(Cl)cc4c(N)c3C(C1)C2` (stereo unspecified), the inhibition was inactive: 5.64%.

`O=P1(Nc2ccccn2)COc2ccccc2OC1`: the inhibition was inactive: -4.88%.

For `CCOP(=O)(Nc1ccc(C)cn1)OCC`, the inhibition is inactive: -3.44%.

In the case of `CN(C(=O)Cc1ccc(Cl)c(Cl)c1)[C@@H]1CCCC[C@H]1N1CCCC1`, the inhibition was inactive: -5.9%.

For the molecule `CC(C)/C=N\N=C(\N)N[N+](=O)[O-]`, the inhibition was inactive: 6.93%.

Regarding `CC1(CBr)Cn2c(nc3ccccc3c2=O)S1` (stereo unspecified), the inhibition is inactive: 17.9%.

Turning to `COc1ccccc1CNC(=O)COC(=O)C(O)(c1ccccc1)c1ccccc1`, the inhibition is inactive: -1.95%.

In the case of `O=C(COc1ccccc1)OC1CN2CCC1CC2` (stereo unspecified), the inhibition is inactive: -3.81%.

Turning to `O=C(Nc1ccncc1[N+](=O)[O-])c1ccc([N+](=O)[O-])cc1[N+](=O)[O-]`, the inhibition was inactive: 12.7%.

With `COP1(=S)c2c(C)nn(CCC#N)c2N=C(c2ccc(F)cc2)N1C` (stereo unspecified), the inhibition is inactive: -5.27%.

For `CCC(C)N(CC(C)C)C(=S)SC(NC(C)=O)C(Cl)(Cl)Cl` (stereo unspecified), the inhibition is inactive: -2.69%.

In the case of `O=C(OC1CN2CCC1CC2)c1cccc([N+](=O)[O-])c1` (stereo unspecified), the inhibition was inactive: 4.73%.

Take `CCOC(=O)c1ccc(NC(=O)C(C)(CCl)SC)cc1` (stereo unspecified): the inhibition is inactive: 1.36%.

On to `CCCCOc1ccc(C(=O)NCC2(N3CCCCC3)CCCCC2)cc1OC`, for which the inhibition is inactive: -1.5%.

On to `Cc1cc(SC(NC(=O)c2ccccc2)C(Cl)(Cl)Cl)nc(C(C)C)n1` (stereo unspecified), for which the inhibition is inactive: 0.304%.

As to `CCOC(=O)Nc1ccc([As](=O)(O)O)c(O)c1`, the inhibition is inactive: -2.37%.

As for `CC1CCNP(=O)(N(CCCl)CCCl)O1` (stereo unspecified), the inhibition was inactive: 4.65%.

`Cc1cc(SC(NC=O)C(Cl)(Cl)Cl)ncn1` (stereo unspecified): the inhibition was inactive: -0.543%.

Take `O=P(Nc1ccccn1)(c1cccc2ccccc12)c1cccc2ccccc12`: the inhibition was inactive: -0.535%.

`O=[N+]([O-])c1ccc(Nc2ccc(Oc3ccc([N+](=O)[O-])cc3[N+](=O)[O-])cc2)c([N+](=O)[O-])c1`: the inhibition is inactive: -1.03%.

As to `CCOC(=O)Nc1cccc([As](=O)(O)O)c1`, the inhibition is inactive: 4.33%.

Consider `Cc1ccc(OP(=O)(Nc2ccc([N+](=O)[O-])cn2)Oc2ccc(C)cc2)cc1`, for which the inhibition is inactive: -1.96%.

Consider `Cc1ccc2nc3c(c(C)c2c1)CC(C(Cl)Cl)S3` (stereo unspecified), for which the inhibition is inactive: 5.15%.

For the molecule `O=[As](O)(c1ccc(O)cc1)c1ccccc1O`, the inhibition is inactive: -3.51%.

For the molecule `C[As](=O)(O)c1cccc(C(=O)O)c1`, the inhibition was inactive: -0.511%.

With `O=C(OC1CN2CCC1CC2)c1cccc2[nH]cnc12` (stereo unspecified), the inhibition was inactive: 5.5%.

On to `CCN(CC)C(=S)SC(NC=O)C(Cl)(Cl)Cl` (stereo unspecified), for which the inhibition is inactive: -9.7%.

With `CC(C)NC(=O)NP(=O)(Oc1ccccc1)Oc1ccccc1`, the inhibition is inactive: -0.674%.

For `O=[N+]([O-])c1cc([N+](=O)[O-])c(-c2ccn[nH]2)s1`, the inhibition was inactive: 3.29%.

As to `ClCCSc1nnc(-c2cccnc2)o1`, the inhibition was inactive: -1.3%.

Regarding `CC(C)c1ccc(OP(=O)(Nc2ccccn2)Oc2ccccc2F)cc1` (stereo unspecified), the inhibition was inactive: -6.67%.

Take `COC(=O)C1(C)COP(=O)(N2CCCCCC2)OC1` (stereo unspecified): the inhibition was inactive: -4.6%.

For the molecule `O=P1(N(CCCl)CCCl)Nc2ccccc2N1`, the inhibition is inactive: -0.567%.

Regarding `COc1ccc2nc(NP(=O)(c3ccccc3)c3ccccc3)sc2c1`, the inhibition is inactive: 3.21%.

For `COc1cc(I)ccc1[As](=O)(O)O`, the inhibition is inactive: -5.46%.

In the case of `Cc1c2c(nc3ccccc13)SC(C(Cl)Cl)C2` (stereo unspecified), the inhibition is inactive: 45.1%.

Consider `O=C(OC1CN2CCC1CC2)C12CC3CC(CC(C3)C1)C2` (stereo unspecified), for which the inhibition was inactive: -3.25%.

As to `Cc1cc(=O)[nH]c(N[N+](=O)[O-])n1`, the inhibition was inactive: -5.43%.

On to `O=[N+]([O-])c1cc(Oc2ccc([N+](=O)[O-])cc2C(F)(F)F)cc([N+](=O)[O-])c1`, for which the inhibition is inactive: -4.23%.

With `COc1ccc(N/C(=N/P(=O)(N2CCOCC2)N2CCOCC2)N2CCOCC2)cc1`, the inhibition was inactive: 1.64%.
